Here are results for one substance from patent US20220387633A1, “SMART PEPTIDES AND TRANSFORMABLE NANOPARTICLES FOR CANCER IMMUNOTHERAPY” (The Regents of the University of California, priority 2019, published 2022).

The test has as its system phosphorylation of Erk, Mek and Raf-1. The test can be described thus: Western blot of MAPK pathway proteins in MCF-7/C6 cells. The test is classed as cell-based, human. The following applies: 36 h; NPs 50 μM, Herceptin 15 μg/mL. On the procedure:
Western blot analysis. MCF-7/C6 cells were treated by different conditions and then collected by centrifugation at 14,000 rpm for 10 min and lysed with a 1% (v/v) Triton X-100 containing lysis buffer (50 mM Tris-HCl, pH 8.0, 150 mM NaCl) with protease inhibitor. Total cellular proteins were estimated using a BCA kit (Applygen). Each sample (50 μg of protein) was subjected to SDS-PAGE and transferred to nitrocellulose membranes. After blocking for 2 h at room temperature with 5% (wt/v) nonfat dry milk in blotto solution (20 mM Tris-HCl, pH 7.5, 150 mM NaCl and 0.1% Tween 20), the membranes were incubated with primary antibody overnight at 4° C. Then the membranes were washed (3×5 min) with TBST solution and incubated with second antibodies for 2 h at room temperature. Signals were visualized by chemiluminescence on a Typhoon Trio Variable Mode Imager. Band density was calculated using NIH Image J software.
In general terms: In western blotting, separated proteins are transferred to a membrane and probed.

On to “Herceptin: positive control in Western blot, anti-HER2 antibody”, for which the “phosphorylation of Erk, Mek and Raf-1” value is “strongly inhibit”.
